The values below come from patent US6737441B2, “Treatment of helicobacter with isothiocyanates” (priority 2000, dated 2004).

The subject of experiment [1] is amoxicillin/clarithromycin/metronidazole - susceptible strains of Helicobacter pylori. Briefly: Bacteriostatic activity (MIC) against susceptible strains. Type of experiment: cell-based.
Experiment [2] deals with clarithromycin and/or metronidazole - intermediate or resistant strains of Helicobacter pylori. Briefly: Bacteriostatic activity (MIC) against intermediate or resistant strains. Type of experiment: cell-based.

In brackets after ≈: the same amount, converted by molar mass.

In general, MIC refers to the lowest concentration found to suppress growth. Low values mean inhibition by little substance, high ones a need for much substance. `CC1(C)S[C@@H]2[C@H](NC(=O)[C@H](N)c3ccc(O)cc3)C(=O)N2[C@H]1C(=O)O` [Amoxicillin]: the MIC in experiment [1] and in experiment [2] was 0.125 µg/mL (≈ 0.342 µM) in each case.
